The structures appear in SMILES notation. Only a part is listed here, and it is no random draw. Active and inactive are the calls of the source.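 How the source made its calls: active means inhibition above the mean over all tested compounds plus 3 SD (cut at about 3.6% in these data); inactive means the rest.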

A short description of this test: DAX1 (NR0B1) inhibitors on StAR promoter, primary screen, cell-based, luminescence, SF-1 (NR5A1), full-length DAX-1 (AID 652010).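 Further: 0% = DAX-1 cells with DMSO and 100% = cells lacking DAX-1 with DMSO; higher inhibition means more luminescence from relief of DAX-1 repression.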 As to conditions: HEK293T StAR-luciferase reporter, SF-1/DAX-1 repression relief; at 6.8 µM; active compounds read high.
In general, inhibition refers to the relative decrease from the control value, in per cent. For `CCC(=O)N(c1ccccc1)C1(COC)CCN(CCc2cccs2)CC1`, the inhibition is inactive: 1.98%. `CCC(=O)N(c1ccccc1)C1(COC)CCN(CCn2nnn(CC)c2=O)CC1`: the inhibition was inactive: -0.11%.

The values above are taken from PubChem BioAssay AID652010 (The Scripps Research Institute Molecular Screening Center, 2013).
